Laboratory results published in article PMC4581874 (PLoS ONE, 2015).

Legend:
HUVECs [1] = test: VEGF-induced endothelial proliferation assay; assay type: cell-based, human; settings: VEGF 50 ng/mL, compound 1 μg/mL
Method: (§1) For analyzing of the antagonistic response to VEGF, tube formation, scratch wound migration, and cell proliferation assays were performed after the exposure of HUVECs to 50 ng/mL VEGF-A (R&D Systems, Minneapolis, MN), which induced a significant angiogenic response. For the cell proliferation assays, cells were incubated overnight in endothelial basal media (EBM; Lonza, Walkersville, MD, USA) containing 0.5% FBS or supplemented with VEGF-A and/or VEGF inhibitors. The cells were washed with PBS and counted in 4 random microscope fields. The tube formation assay was performed by seeding cells on Matrigel-coated plates (BD Bioscience, Bedford, MA, USA) and incubating in EBM containing 0.5% FBS or supplemented with VEGF-A and/or VEGF inhibitors. After overnight incubation, tubule networks were quantified by measuring the tubule length in 4 random microscope fields. For the analysis of scratch wound migration, confluent cell monolayers grown on 6-well plates were scratched using a micropipette tip. […] Cell migration was observed by optical microscopy and quantified by measuring the number of cells that had migrated from the wound edges.
(§2) In (A) and (B), the number of cells was expressed as the fold change with respect to the number of cells seeded at day 0. […]

HUVECs [2] = test: VEGF-induced scratch wound migration assay; assay type: cell-based, human; settings: VEGF 50 ng/mL, compound 0.5 μg/mL, 8 hours
Method: as §1, §2

Cc1ccc(Nc2nccc(N(C)c3ccc4c(C)n(C)nc4c3)n2)cc1S(N)(=O)=O [Pazopanib, 5-[[4-[(2,3-dimethyl-2H-indazol-6-yl)methylamino]-2-pyrimidinyl]amino]-2-methyl-benzenesulfonamide, reference compound]
Effect on VEGF-induced increase in endothelial proliferation (HUVECs [1]): significantly inhibited | Effect on VEGF-induced increase in migration (HUVECs [2]): significantly inhibited
